Experimental data as given in patent US20230265479A1 (priority 2020, published 2023).

Experiments:
[1] = test system: Firefly Luciferase reporter gene driven by the C3P3-G1 system in HEK-293 cells; test: Firefly Luciferase reporter expression by the C3P3-G1 system in HEK-293 cells
From the text: (§1) The C3P3 system was used to express the Firefly luciferase test gene (FIG. 2, i.e. pK1Ep-Luciferase-4xλBoxBr), which consists of a K1E phage RNA polymerase promoter transcribed by the C3P3 enzyme, 5′-UTR from the human β-globin gene (Genbank NM_000518.4), Kozak consensus sequence for initiation of translation followed by the ORF of the Photinus pyralis gene (i.e. Firefly luciferase; UniProtKB/Uniprot accession number Q27758) and stop codon, four BoxBL RNA tethering repeats in tandem from the lambda bacteriophage that binds at high affinity to the N-peptide of the C3P3-G2 and C3P3-G3a enzyme (nucleotides 38312-38298 of genomic sequence of Enterobacteria phage lambda KT232076.1), an artificial poly[A] track of 40 adenosine residues, followed by a self-cleaving genomic ribozyme from of the hepatitis D virus, and terminated by the bacteriophage T7 φ10 transcription stop. As a control the Firefly luciferase was expressed by standard nuclear expression system using RNA polymerase II-dependent CMV promoter (FIG. 3). The corresponding pCMVScript-Luciferase plasmid therefore contained the IE1 human CMV promoter/enhancer, Kozak consensus sequence followed by the ORF from Photinus pyralis gene (UniProtKB/Uniprot accession number Q27758), and late SV40 polyadenylation signal.
(§2) For standard experiments, the Human Embryonic Kidney 293 (HEK-293, ATCC CRL 1573) were routinely grown at 37° C. in 5% CO2 atmosphere at 100% relative humidity. Cells were maintained in Dulbecco's Modified Eagle's Medium (DMEM) supplemented with 4 mM L-alanyl-L-glutamine, 10% fetal bovine serum (FBS), 1% non-essential amino-acids, 1% sodium pyruvate, 1% penicillin and streptomycin, and 0.25% fungizone.
(§3) Cells were routinely plated in 24-well plates at 1×10^5 cells per well the day before transfection and transfected at 80% cell confluence. […]
(§4) Human cells were cultured and cotransfected with the pC3P3-G1/pK1Ep-Luciferase-4xλBoxBr or pC3P3-G2/pK1Ep-Luciferase-4xλBoxBr plasmids as previously described. For standard luciferase and hSEAP gene reporter expression assays, cells were analyzed 48 hours after transfection. […]
(§5) Luciferase luminescence was assayed by the Luciferase Assay System (Promega, Madison, Wis.) according to the manufacturer's recommendations. […] Luminescence readout was taken on a Tristar 2 microplate reader (Berthold, Bad Wildbad, Germany) with a read time of one second per well.
(§6) In order to normalize for transfection efficacy, cells were transfected with the pORF-eSEAP plasmid (InvivoGen, San Diego, Calif.), which encodes for the human secreted embryonic alkaline phosphatase (hSEAP) driven by the EF-1α/HTLV composite promoter. […] Gene reporter expression was expressed as the ratio of luciferase luminescence (RLU, relative light units) to eSEAP absorbance (OD, optic density). […]

[2] = test system: Firefly Luciferase reporter gene driven by the C3P3-G2 system in HEK-293 cells; test: Firefly Luciferase reporter expression by the C3P3-G2 system in HEK-293 cells
From the text: as §1, §2, §3, §4, §5, §6

SMILES: O=C1Nc2ccc3ncsc3c2C1=Cc1cnc[nH]1
- Firefly Luciferase relative ratio vs. no CAS 608512-97-6 ([1]; 10 nM CAS 608512-97-6): 159 871; NS (1.05)
- Firefly Luciferase relative ratio vs. no CAS 608512-97-6 ([1]; 100 nM CAS 608512-97-6): 424 730; <0.01 (1.20)
- Firefly Luciferase relative ratio vs. no CAS 608512-97-6 ([1]; 1 μM CAS 608512-97-6): 367 210; <0.0001 (1.31)
- Firefly Luciferase relative ratio vs. no CAS 608512-97-6 ([1]; 10 μM CAS 608512-97-6): 235 564; <0.0001 (1.25)
- Firefly Luciferase relative ratio vs. no CAS 608512-97-6 ([2]; 10 nM CAS 608512-97-6): 497 010; NS (1.15)
- Firefly Luciferase relative ratio vs. no CAS 608512-97-6 ([2]; 100 nM CAS 608512-97-6): 451 546; <0.0001 (1.30)
- Firefly Luciferase relative ratio vs. no CAS 608512-97-6 ([2]; 1 μM CAS 608512-97-6): 180 533; <0.0001 (1.67)
- Firefly Luciferase relative ratio vs. no CAS 608512-97-6 ([2]; 10 μM CAS 608512-97-6): 488 998; <0.0001 (1.50)
